Several values for one entry are separate records, joined by “and”; a condition that tells them apart may be missing. Equal entries are not always repeated. Only a part is listed here, and it is no random draw. Inconclusive results are not listed. Some structures have more than one record in an assay (separate samples or runs), and their calls can disagree. Activity calls are given as the source filed them. Rule for the calls, unless noted: active = hit-call score of the fitted dose curve at least 0.9, where 1 is the maximum; inconclusive = response in the unintended direction; inactive = score below 0.9.
How the values were obtained:
[1] = ACEA_ER_AUC_viability: ACEA Biosciences xCELLigence Real-Time Cell Analysis on Estrogen Receptor Agonism for Viability (AID 2283782);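 note: hit means loss of impedance signal meaning reduced cell growth or viability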
Summary of the method: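 Continuous-exposure impedance cell analysis uses T-47D cells in charcoal-stripped serum, eight 1:4 dilutions topping at 100 uM final, biological duplicate. Area under the growth curve at 80 h is fitted against DMSO baseline.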

The chains behind the UniProt entries cited, without tags or fusion partners. Where a name states a change or a piece, a line headed by the entry shows the natural chain unless it says otherwise.
UniProt P08659, whole entry, looked up: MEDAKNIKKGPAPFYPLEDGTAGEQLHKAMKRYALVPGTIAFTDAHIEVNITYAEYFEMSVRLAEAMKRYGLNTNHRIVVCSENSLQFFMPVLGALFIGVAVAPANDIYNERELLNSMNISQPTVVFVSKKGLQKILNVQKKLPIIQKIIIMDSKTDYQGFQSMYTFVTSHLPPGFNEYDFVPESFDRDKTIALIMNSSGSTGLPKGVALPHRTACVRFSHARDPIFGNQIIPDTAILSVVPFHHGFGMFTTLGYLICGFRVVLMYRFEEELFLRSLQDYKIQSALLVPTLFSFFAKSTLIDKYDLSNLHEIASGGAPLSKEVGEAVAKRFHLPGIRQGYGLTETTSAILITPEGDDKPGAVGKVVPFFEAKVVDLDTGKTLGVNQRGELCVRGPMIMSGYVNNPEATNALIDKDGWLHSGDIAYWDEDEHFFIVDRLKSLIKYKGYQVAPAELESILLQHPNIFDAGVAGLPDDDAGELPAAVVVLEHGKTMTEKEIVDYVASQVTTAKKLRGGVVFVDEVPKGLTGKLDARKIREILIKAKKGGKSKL
UniProt P10275: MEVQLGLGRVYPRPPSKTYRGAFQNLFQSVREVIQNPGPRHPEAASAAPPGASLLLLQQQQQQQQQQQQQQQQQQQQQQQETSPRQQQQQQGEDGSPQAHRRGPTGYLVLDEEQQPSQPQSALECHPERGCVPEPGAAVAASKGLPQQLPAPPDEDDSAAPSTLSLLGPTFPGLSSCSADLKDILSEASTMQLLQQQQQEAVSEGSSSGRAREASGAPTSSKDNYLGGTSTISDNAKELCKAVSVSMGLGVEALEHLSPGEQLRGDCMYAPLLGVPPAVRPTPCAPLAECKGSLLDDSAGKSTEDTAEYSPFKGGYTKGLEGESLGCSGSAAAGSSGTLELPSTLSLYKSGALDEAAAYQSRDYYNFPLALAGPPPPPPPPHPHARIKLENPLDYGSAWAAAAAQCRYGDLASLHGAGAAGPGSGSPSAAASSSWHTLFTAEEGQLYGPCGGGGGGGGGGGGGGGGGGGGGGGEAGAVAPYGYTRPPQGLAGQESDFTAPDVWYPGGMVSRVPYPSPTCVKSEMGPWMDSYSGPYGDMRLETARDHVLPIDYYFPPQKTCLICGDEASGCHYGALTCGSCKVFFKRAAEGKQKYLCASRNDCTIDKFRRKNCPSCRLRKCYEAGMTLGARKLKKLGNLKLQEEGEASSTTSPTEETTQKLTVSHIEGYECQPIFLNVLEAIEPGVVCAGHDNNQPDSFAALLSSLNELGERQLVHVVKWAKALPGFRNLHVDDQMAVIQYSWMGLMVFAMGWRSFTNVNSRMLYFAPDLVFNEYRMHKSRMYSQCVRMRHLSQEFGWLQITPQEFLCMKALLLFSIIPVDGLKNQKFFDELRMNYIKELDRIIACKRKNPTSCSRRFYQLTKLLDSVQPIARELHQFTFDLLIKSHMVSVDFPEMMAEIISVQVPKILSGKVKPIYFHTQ
UniProt Q9UNQ0: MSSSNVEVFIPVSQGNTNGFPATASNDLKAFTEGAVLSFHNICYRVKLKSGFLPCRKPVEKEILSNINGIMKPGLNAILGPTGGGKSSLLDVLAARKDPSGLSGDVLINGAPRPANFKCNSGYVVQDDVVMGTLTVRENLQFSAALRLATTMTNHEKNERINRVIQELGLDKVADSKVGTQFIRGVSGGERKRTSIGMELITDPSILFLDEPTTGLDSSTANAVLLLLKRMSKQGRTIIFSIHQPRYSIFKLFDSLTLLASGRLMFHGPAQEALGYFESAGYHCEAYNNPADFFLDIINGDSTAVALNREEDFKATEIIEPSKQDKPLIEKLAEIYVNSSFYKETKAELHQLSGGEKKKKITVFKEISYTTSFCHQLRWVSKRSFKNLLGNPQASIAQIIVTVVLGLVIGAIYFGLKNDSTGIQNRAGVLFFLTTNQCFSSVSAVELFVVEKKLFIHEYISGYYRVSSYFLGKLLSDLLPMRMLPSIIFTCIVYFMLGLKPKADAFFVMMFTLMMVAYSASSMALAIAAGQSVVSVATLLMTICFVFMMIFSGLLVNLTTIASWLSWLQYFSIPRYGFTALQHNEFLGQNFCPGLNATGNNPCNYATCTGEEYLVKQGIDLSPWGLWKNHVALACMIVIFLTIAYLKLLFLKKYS
UniProt P04406: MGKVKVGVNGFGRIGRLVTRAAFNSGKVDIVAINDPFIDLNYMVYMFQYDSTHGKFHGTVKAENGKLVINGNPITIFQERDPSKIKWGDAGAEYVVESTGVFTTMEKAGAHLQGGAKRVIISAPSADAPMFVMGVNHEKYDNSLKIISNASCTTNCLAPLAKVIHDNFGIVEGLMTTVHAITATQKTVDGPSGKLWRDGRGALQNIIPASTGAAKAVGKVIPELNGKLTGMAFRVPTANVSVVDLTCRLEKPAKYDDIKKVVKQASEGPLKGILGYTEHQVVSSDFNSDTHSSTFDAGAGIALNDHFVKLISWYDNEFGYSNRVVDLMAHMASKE

[2] = molecular target: Luciferin 4-monooxygenase (Photinus pyralis) (UniProt P08659); test: CCTE_Simmons_QuantiLum_inhib_2: CCTE's Firefly Luciferase Inhibition Assay, Simmons Lab (AID 2283767);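 for AC50: potency for inhibitors that lower luciferase luminescence relative to DMSO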
Summary of the method: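 Eight-point titrations of each chemical, 5 nM–87.5 uM final in 0.5% DMSO, were run in three biological replicates against recombinant luciferase for 30 min at 37C. Bioluminescence signal loss, read on reagent injection, gave the inhibition endpoint.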

[3] = ACEA_AR_agonist_AUC_viability: ACEA Biosciences xCELLigence Real-Time Cell Analysis on Androgen Receptor Agonism for Viability (AID 2283775);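 for AC50: viability read 80 hours after compound addition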
Summary of the method: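 Viability endpoint from xCELLigence impedance in 22Rv1 prostate cells at 80 h. Eight-point series, 100 uM maximum final.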

[4] = ACEA_AR_antagonist_AUC_viability: ACEA Biosciences xCELLigence Real-Time Cell Analysis on Androgen Receptor Antagonism for Viability (AID 2283776);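 note: 22Rv1 human prostate cancer cells growing on impedance electrode plates; area under impedance growth curve at 80 h after dosing as viability; hits lower the growth signal relative to DMSO meaning cytotoxicity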
Summary of the method: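 Viability endpoint from label-free cell-index monitoring: 22Rv1 cultures treated with an eight-point 1:4 dilution series starting at 100 uM final, AUC at 80 h fitted against DMSO.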

[5] = Tanguay_ZF_120hpf_ActivityScore_legacy: (Legacy) Oregon State University Tanguay Lab 120 Hour Post-fertilization zebrafish Assay Score for Activity (AID 2283742);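 for AC50: dechorionated Tropical 5D wild-type zebrafish embryos held singly per well; static exposure from 6 hpf until 120 hpf at 28 °C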
Summary of the method: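 In this whole-embryo screen, dechorionated zebrafish were exposed from 6 hpf until 120 hpf at 28C under a 0.64% DMSO vehicle. Developmental malformations and death were recorded by brightfield microscopy as binary endpoints.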

AR (gene 367) [6] = molecular target: AR (gene 367) (UniProt P10275); test: ACEA_AR_agonist_80hr: ACEA Biosciences xCELLigence Real-Time Cell Analysis on Androgen Receptor Agonism for Proliferation (AID 2283783);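 note: hits increase impedance growth signal above DMSO baseline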
Summary of the method: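 Real-time cell-growth kinetics were recorded by electrode impedance in 22Rv1 cells exposed to test chemicals up to 100 uM final; the 80 h timepoint served as the readout, fitted upward relative to DMSO controls, in biological duplicate.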

AR (gene 367) [7] = molecular target: AR (gene 367) (UniProt P10275); test: ACEA_AR_antagonist_80hr: ACEA Biosciences xCELLigence Real-Time Cell Analysis on Androgen Receptor Antagonism for Proliferation (AID 2283787);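 note: 22Rv1 human prostate cancer cells with growth followed by electrical impedance; hits lower the impedance growth signal relative to DMSO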
Summary of the method: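 Using 22Rv1 cells held in assay medium, we dosed compounds (100 uM maximum final, 1:4 serial, eight points, 0.5% DMSO at top) and recorded cell-electrode impedance; the 80 hr timepoint was analyzed against DMSO.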

[8] = read-out: xenobiotic metabolism (CYP1A2), CYP1A2 (gene 1544); test: CLD_CYP1A2_48hr: CellzDirect (CLD) Gene Expression Assay for xenobiotic metabolism (CYP1A2) at 48 hours (AID 2283703)
Summary of the method: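 Cytotoxicity was flagged yes/no from morphology, while CYP1A2 transcript induction was detected by qNPA chemiluminescence after a 48-hour exposure. Human primary hepatocyte cultures from separate donors received fresh dosing solutions daily over two days, with 0.2% DMSO as vehicle and baseline.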

[9] = read-out: Broad substrate specificity ATP-binding cassette transporter ABCG2 (Homo sapiens) (UniProt Q9UNQ0); test: CLD_ABCG2_48hr: CellzDirect (CLD) Gene Expression Assay for ABC Transporter (ABCG2) at 48 hours (AID 2283704)
Summary of the method: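 ABCG2 transcript measured at 48 h by quantitative nuclease protection (chemiluminescent) and fitted for increase relative to 0.2% DMSO. Hepatocyte cultures from separate donors got fresh compound daily over two days; morphology annotated cytotoxicity.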

[10] = read-out: alkyl and aryl transferase (GSTA2), GSTA2 (gene 2939); test: CLD_GSTA2_48hr: CellzDirect (CLD) Gene Expression Assay for alkyl and aryl transferase (GSTA2) at 48 hours (AID 2283708);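 note: active means mRNA induction above DMSO vehicle baseline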
Summary of the method: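 GSTA2 mRNA quantified by qNPA chemiluminescence in human primary hepatocyte lysates after 48 h of daily fresh chemical dosing. Increases fitted against 0.2% DMSO vehicle baseline; cytotoxicity from morphology annotated yes/no.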

[11] = read-out: glucuronosyltransferase (UGT1A1), UGT1A1 (gene 54658); test: CLD_UGT1A1_48hr: CellzDirect (CLD) Gene Expression Assay for glucuronosyltransferase (UGT1A1) at 48 hours (AID 2283709);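 note: actives increase expression relative to DMSO so potency refers to induction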
Summary of the method: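 Quantitative nuclease protection assay (chemiluminescent) for UGT1A1 mRNA at 48 h in human hepatocyte cultures from two donors, redosed daily with fresh solutions. Induction fitted relative to 0.2% DMSO; phase-contrast morphology annotated cytotoxicity.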

[12] = read-out: sulfotransferase (SULT2A), SULT2A1 (gene 6822); test: CLD_SULT2A_48hr: CellzDirect (CLD) Gene Expression Assay for sulfotransferase (SULT2A) at 48 hours (AID 2283710);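 note: hits raise SULT2A1 transcript above the 0.2% DMSO vehicle baseline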
Summary of the method: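 SULT2A1 transcript measured by qNPA chemiluminescence in human primary hepatocyte cultures after 48 h, with fresh dosing solutions on two consecutive days; gain-of-signal fitting against 0.2% DMSO vehicle; cytotoxicity annotated from phase-contrast morphology.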

[13] = read-out: Glyceraldehyde-3-phosphate dehydrogenase (Homo sapiens) (UniProt P04406); test: CLD_GAPDH_48hr: CellzDirect (CLD) Gene Expression Assay for Baseline Control (Glyceraldehyde 3-phosphate dehydrogenase) at 48 hours (AID 2283706);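 note: active means higher GAPDH mRNA than DMSO vehicle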
Summary of the method: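 GAPDH baseline-control readout: qNPA chemiluminescent mRNA quantitation in human liver primary cells 48 h after daily dosing on two consecutive days, vehicle 0.2% DMSO; gain of signal fitted against DMSO, cytotoxicity flagged by phase-contrast morphology.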

[14] = read-out: HMG-CoA synthase (HMGCS2), HMGCS2 (gene 3158); test: CLD_HMGCS2_48hr: CellzDirect (CLD) Gene Expression Assay for HMG-CoA synthase (HMGCS2) at 48 hours (AID 2283711)
Summary of the method: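 mRNA induction read by qNPA chemiluminescence, 48 h after dosing. Cultured primary human liver cells (two donor preparations) received fresh compound daily over two days against 0.2% DMSO vehicle; morphology-based cytotoxicity noted alongside.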

[15] = STM_H9_OrnithineISnorm_perc: Stemina devTOX quickPredict H9 human embryonic stem cell (hESC)-based Assay for Ornithine (ORN) Metabolite Biomarker, Normalized (AID 2283712; active = hit-call score of the fitted dose curve at least 0.9, where 1 is the maximum; inactive = score below 0.9;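 note: ornithine released into spent medium during last day measured by mass spectrometry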)
Summary of the method: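 Metabolite endpoint from spent media of pluripotent H9 cells treated 72 h with daily re-feeding; ornithine measured by UPLC-HRMS against its 13C spike-in and referenced to the median 0.1% DMSO vehicle response.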

[16] = STM_H9_CystineISnorm_perc: Stemina devTOX quickPredict H9 human embryonic stem cell (hESC)-based Assay for Cystine (CYSS) Metabolite Biomarker, Normalized (AID 2283713; active = hit-call score of the fitted dose curve at least 0.9, where 1 is the maximum; inactive = score below 0.9)
Summary of the method: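 Normalized cystine level in conditioned medium from the final 24h of a 72h treatment of pluripotent H9 cells (daily media and compound renewal). Quantified by UPLC-HRMS with C13-labeled internal standard; scaled to median of 0.1% DMSO vehicle wells.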

[17] = STM_H9_OrnCyssISnorm_ratio: Stemina devTOX quickPredict H9 human embryonic stem cell (hESC)-based Assay for Ornithine (ORN):Cystine (CYSS) Ratio (AID 2283714)
Summary of the method: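 H9 hESC, 72h, q24h re-dose; last-day media → acetonitrile deproteinization → UPLC-HRMS. ORN:CYSS ratio from isotope-normalized EIC areas, vs 0.1% DMSO; MTX references on each plate.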

[18] = CEETOX_H295R_MTT_cell_viability: Viability Assessment in the CeeTox HT-H295R MTT Assay (AID 2283718; active = hit-call score of the fitted dose curve at least 0.9, where 1 is the maximum; inactive = score below 0.9)
Summary of the method: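 H295R cells prestimulated 48 h with 10 uM forskolin, then exposed 48 h to test chemical (0.1% DMSO final). Viability by MTT (0.5 mg/ml, 4 h, 37 C), absorbance 570/650 nm; percent change versus DMSO, bidirectional fit.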

[19] = STM_H9_NormalizedViability: Cytotoxicity Assessment at 120 hours in the Stemina devTOX quickPredict H9 human embryonic stem cell (hESC)-based Assay (AID 2283784)
Summary of the method: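 Here, H9 cells received test compound with daily medium renewal. Each plate included methotrexate references (1uM, 5 nM), 0.1% DMSO and media blanks; CellTiter-Fluor RFU was normalized to DMSO.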

[20] = ATG_M_06_XSP2: Attagene TRANS-FACTORIAL Multi-Species (XSP2) HepG2 Assay for M06 Transcription Factor (Internal Marker) (AID 2283811);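 note: internal background marker reporter mRNA measured by RT-PCR and capillary electrophoresis; hits are increases in signal above the DMSO baseline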
Summary of the method: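 Cells of the human liver line HepG2 carried transfected reporter transcription units and were treated for 24 h. Induced reporter transcripts were detected by fluorescence after RT-PCR and capillary electrophoresis, with activity fitted in the gain direction against DMSO.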

Measured: AC50

O=C(Cl)Oc1ccccc1
inactive: [1]

ClP(Cl)c1ccccc1
inactive: [2] | [3] | [4] | [1]

Cc1cc([N+](=O)[O-])cc([N+](=O)[O-])c1O
active: [5] 2.1 µM | [3] 50 µM | [4] 36.3 µM | AR (gene 367) [7] 55.3 µM
inactive: AR (gene 367) [6]

CCCCO[P+](=O)OCCCC
inactive: [1]

CC(C)CCCCCCCOP(OCCCCCCCC(C)C)Oc1ccccc1
inactive: [2] | [3] | [4]

CC(C)OP(=S)(OC(C)C)SCCNS(=O)(=O)c1ccccc1
inactive: [9] | [10] | [12] | [5] | [2]
active: [8] 3.2 µM and 3.15 µM and 4.55 µM | [10] 32 µM | [11] 1.9 µM and 1.07 µM and 2.54 µM | [2] 10.7 µM | [3] 71.8 µM | [4] 75.2 µM | [1] 90.1 µM

O=C(Cl)OCCOC(=O)Cl
inactive: [1]

CN(C(=O)Cc1cccc2occc12)[C@H]1CC[C@@]2(CCCO2)C[C@@H]1N1CCCC1
inactive: [5] | [3] | [4]
active: [1] 19.7 µM

CCCCC(CC)CO[P+](=O)OCC(CC)CCCC (configuration not stated)
inactive: [1]

O=C1C2CC=CCC2C(=O)N1SC(Cl)(Cl)C(Cl)Cl (configuration not stated)
inactive: [8] | [9] | [13] | [10] | [11] | [12] | [14] | [18] | AR (gene 367) [6]
active: [15] 4.65 µM | [16] 1.16 µM | [17] 3.43 µM | [5] 33 µM | [3] 6.42 µM | [1] 73 µM | [19] 5.61 µM | AR (gene 367) [7] 4.37 µM

CCCCOP(OCCCC)OCCCC
inactive: [1]

O=[N+]([O-])c1ccc([N+](=O)[O-])cc1
active: [17] 79.8 µM | [1] 37.4 µM

O=[P+](Oc1ccccc1)Oc1ccccc1
inactive: [2] | [4] | AR (gene 367) [6] | AR (gene 367) [7] | [20]

Source: PubChem BioAssay (EPA / NIEHS)
